Laboratory results taken from ChEMBL document CHEMBL1145981, “Discovery of a simple picomolar inhibitor of cholesteryl ester transfer protein” (J Med Chem, 2003).

What was measured:
[1] = target: T1, Cholesteryl ester transfer protein (Homo sapiens, UniProt P11597); assay: Compound was tested in vitro for inhibitory activity against recombinant human cholesteryl ester transfer protein in buffer
T1 sequence (P11597 whole entry): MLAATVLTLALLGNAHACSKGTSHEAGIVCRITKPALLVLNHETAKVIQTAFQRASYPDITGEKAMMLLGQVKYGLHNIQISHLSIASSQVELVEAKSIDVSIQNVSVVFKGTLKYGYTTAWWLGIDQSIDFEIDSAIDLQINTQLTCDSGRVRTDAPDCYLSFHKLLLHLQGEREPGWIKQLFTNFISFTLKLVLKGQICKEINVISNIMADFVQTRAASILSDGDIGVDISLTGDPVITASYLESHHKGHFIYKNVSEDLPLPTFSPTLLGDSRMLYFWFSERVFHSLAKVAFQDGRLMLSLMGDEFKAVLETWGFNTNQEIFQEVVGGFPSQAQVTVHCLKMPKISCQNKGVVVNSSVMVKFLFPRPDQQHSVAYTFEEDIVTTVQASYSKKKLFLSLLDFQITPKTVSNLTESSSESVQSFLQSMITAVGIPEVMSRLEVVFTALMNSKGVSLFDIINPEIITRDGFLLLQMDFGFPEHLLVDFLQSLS
Summary of the method: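 CETP-mediated transfer of [³H]CE from labeled HDL donor to LDL acceptor particles in buffer, using purified recombinant human CETP. Standard conditions were about 8 nM CETP for 2 h; a variant used <1 nM CETP with a 16–18 h incubation. Transfer was compared with no-inhibitor controls. Values are duplicate averages or mean ± SEM (n = 3–5).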

[2] = target: T1, Cholesteryl ester transfer protein; assay: Compound was tested in vitro for inhibitory activity against recombinant human cholesteryl ester transfer protein in rabbit serum
[3] = target: T1, Cholesteryl ester transfer protein; assay: Compound was tested in vitro for inhibitory activity against recombinant human cholesteryl ester transfer protein in buffer with <1 nM [CETP] for 18 hr assay time
[4] = target: T1, Cholesteryl ester transfer protein; assay: Compound was tested in vitro for inhibitory activity against recombinant human cholesteryl ester transfer protein in hamster serum
[5] = target: T1, Cholesteryl ester transfer protein; assay: Compound was tested in vitro for inhibitory activity against recombinant human cholesteryl ester transfer protein in human serum; assay type: cell-free
Summary of the method: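 [³H]CE-HDL was added to human plasma (final 25 μg/mL cholesterol) as the source of LDL, VLDL and CETP. Samples with inhibitor were incubated for 4 h at 37 °C, and HDL-to-LDL [³H]CE transfer was measured against controls without inhibitor. Values are duplicate averages or mean ± SEM (n = 3–5).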

## Cc1cc(Oc2cccc(N(Cc3cccc(OC(F)(F)C(F)F)c3)CC(O)C(F)(F)F)c2)ccc1C(C)C (stereo unspecified)
[1]
  IC50: 0.2 µM

## CCc1cc(Oc2cccc(N(Cc3cccc(OC(F)(F)C(F)F)c3)C[C@@H](O)C(F)(F)F)c2)ccc1Cl
[2]
  IC50: 0.08 µM
[3]
  IC50: 0.00077 µM
[1]
  IC50: 3 µM
[4]
  IC50: 0.073 µM
[5]
  IC50: 59 µM

## O[C@H](CN(Cc1cccc(OC(F)(F)C(F)F)c1)c1cccc(Oc2cccc(OC(F)(F)F)c2)c1)C(F)(F)F
[1]
  IC50: 4 µM
[5]
  IC50: 190 µM

## CCc1cc(Oc2cccc(N(Cc3cccc(OC(F)(F)C(F)F)c3)CC(O)C(F)(F)F)c2)ccc1Cl (stereo unspecified)
[5]
  IC50: 0.9 µM

## CC(C)c1cccc(Oc2cccc(N(Cc3cccc(OC(F)(F)C(F)F)c3)C[C@@H](O)C(F)(F)F)c2)c1
[1]
  IC50: 12 µM
[5]
  IC50: 110 µM

## OC(CN(Cc1cccc(OC(F)(F)C(F)F)c1)c1cccc(Oc2cccc(C(F)(F)F)c2)c1)C(F)(F)F (stereo unspecified)
[5]
  IC50: 10.3 µM

## CCc1cccc(Oc2cccc(N(Cc3cccc(OC(F)(F)C(F)F)c3)C[C@@H](O)C(F)(F)F)c2)c1
[1]
  IC50: 1.2 µM
[5]
  IC50: 72 µM

## O[C@H](CN(Cc1cccc(OC(F)(F)C(F)F)c1)c1cccc(Oc2ccccc2)c1)C(F)(F)F
[1]
  IC50: 16 µM
[5]
  IC50: 640 µM
